From ChEMBL document CHEMBL5634116, “Strategies for developing retinoic acid receptor alpha-selective antagonists as novel agents for male contraception” (Eur J Med Chem, 2023) come the findings set out here.

Chains of the proteins cited; added tags and fusions are not shown.
UniProt P10276, whole entry: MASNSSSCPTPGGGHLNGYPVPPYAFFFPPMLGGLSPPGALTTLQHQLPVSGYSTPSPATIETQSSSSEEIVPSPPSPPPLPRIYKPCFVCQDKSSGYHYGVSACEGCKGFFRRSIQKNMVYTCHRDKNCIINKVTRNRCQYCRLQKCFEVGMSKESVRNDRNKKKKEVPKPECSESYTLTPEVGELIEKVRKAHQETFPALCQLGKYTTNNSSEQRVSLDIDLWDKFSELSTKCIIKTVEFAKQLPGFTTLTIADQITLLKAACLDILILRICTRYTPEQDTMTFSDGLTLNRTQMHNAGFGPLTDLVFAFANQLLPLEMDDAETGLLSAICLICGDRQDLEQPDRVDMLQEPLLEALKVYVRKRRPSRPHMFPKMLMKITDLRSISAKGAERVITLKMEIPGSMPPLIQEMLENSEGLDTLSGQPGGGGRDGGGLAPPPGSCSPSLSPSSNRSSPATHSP
UniProt P10826, whole entry: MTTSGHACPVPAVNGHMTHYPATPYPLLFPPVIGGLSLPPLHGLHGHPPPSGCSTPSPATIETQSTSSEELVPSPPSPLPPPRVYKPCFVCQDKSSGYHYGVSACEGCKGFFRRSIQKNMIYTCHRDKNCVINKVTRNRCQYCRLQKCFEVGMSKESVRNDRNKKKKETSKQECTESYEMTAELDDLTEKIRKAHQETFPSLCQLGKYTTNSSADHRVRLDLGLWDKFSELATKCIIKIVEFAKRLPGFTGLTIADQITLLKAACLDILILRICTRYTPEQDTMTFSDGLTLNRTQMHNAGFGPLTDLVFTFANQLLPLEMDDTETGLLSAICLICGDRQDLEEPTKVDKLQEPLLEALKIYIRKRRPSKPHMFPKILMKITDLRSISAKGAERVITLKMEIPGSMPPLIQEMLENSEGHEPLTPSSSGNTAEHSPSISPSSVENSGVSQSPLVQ
UniProt P13631, whole entry: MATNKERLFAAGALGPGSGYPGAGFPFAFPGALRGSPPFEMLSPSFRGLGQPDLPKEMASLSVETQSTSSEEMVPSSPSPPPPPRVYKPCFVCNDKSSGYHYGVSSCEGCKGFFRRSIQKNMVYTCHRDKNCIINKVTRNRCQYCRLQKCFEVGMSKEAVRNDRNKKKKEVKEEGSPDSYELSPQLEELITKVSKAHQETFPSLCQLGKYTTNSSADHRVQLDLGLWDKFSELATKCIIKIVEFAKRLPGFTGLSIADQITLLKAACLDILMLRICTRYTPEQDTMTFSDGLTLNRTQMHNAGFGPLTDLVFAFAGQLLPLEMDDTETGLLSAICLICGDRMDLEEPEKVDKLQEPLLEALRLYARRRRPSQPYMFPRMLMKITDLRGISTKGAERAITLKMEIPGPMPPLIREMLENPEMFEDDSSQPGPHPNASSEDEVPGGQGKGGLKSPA

The structures appear in SMILES notation.

Format in all cases: cell-based
Assay [1] deals with Retinoic acid receptor alpha (Homo sapiens, UniProt P10276). The assay can be described thus: Agonist activity at recombinant human RAR-alpha expressed in mammalian cells by luciferase reporter gene based transactivation assay relative to control. The essentials:
(§1)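 Transactivation in proprietary reporter cells expressing recombinant human RAR subtype with RARE-linked beetle luciferase. Compounds in DMSO (final 0.4%), 8-point dose response in triplicate; cells added, incubated overnight at 37 °C, 5% CO2, then luciferase reagent 30 min r.t., luminescence read.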
For orientation: A reporter such as luciferase makes a cellular process visible.

Assay [2] addresses Retinoic acid receptor beta (Homo sapiens, UniProt P10826). The assay can be described thus: Agonist activity at recombinant human RAR-beta expressed in mammalian cells by luciferase reporter gene based transactivation assay relative to control. The essentials: as §1
Assay [3] has as its target Retinoic acid receptor gamma (Homo sapiens, UniProt P13631). The assay can be described thus: Agonist activity at recombinant human RAR-gamma expressed in mammalian cells by luciferase reporter gene based transactivation assay relative to control. An outline of the steps:
as §1

With `CC1(C)CC=C(c2ccccc2)c2cc(/C=C/c3ccc(C(=O)O)cc3)ccc21`, the Emax (commonly the maximal effect, on the per cent scale that the assay sets) in assay [1] amounted to 12%.
As for `CC1(C)CC=C(c2cnc3ccccc3c2)c2cc(C(=O)Nc3ccc(C(=O)O)cc3)ccc21`, the maximum response (Emax) in assay [1], in assay [2] and in assay [3] was 0% throughout.
